Laboratory results from paper PMC10952582, “Pregnenolone sulfate analogues differentially modulate GABAA receptor closed/desensitised states” (British Journal of Pharmacology, 2023).
Like-named read-outs stand apart in the source and are kept apart here.

Protein sequences, listed by entry. Tags and fused reporters are not part of them. Residues count along the entry.
UniProt P62812, 28-455 limits assumed: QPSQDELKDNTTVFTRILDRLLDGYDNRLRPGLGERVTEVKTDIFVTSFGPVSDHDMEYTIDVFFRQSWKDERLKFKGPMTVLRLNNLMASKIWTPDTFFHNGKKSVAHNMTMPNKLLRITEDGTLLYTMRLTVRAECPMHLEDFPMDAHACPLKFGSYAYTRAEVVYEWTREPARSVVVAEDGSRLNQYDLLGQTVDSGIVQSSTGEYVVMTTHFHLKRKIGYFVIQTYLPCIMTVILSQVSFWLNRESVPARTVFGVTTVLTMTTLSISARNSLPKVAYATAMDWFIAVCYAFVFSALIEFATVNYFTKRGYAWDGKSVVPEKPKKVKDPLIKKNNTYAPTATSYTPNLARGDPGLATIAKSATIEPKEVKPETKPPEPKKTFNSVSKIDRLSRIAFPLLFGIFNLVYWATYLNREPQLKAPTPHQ
UniProt P22723, 39-474 partner limits assumed: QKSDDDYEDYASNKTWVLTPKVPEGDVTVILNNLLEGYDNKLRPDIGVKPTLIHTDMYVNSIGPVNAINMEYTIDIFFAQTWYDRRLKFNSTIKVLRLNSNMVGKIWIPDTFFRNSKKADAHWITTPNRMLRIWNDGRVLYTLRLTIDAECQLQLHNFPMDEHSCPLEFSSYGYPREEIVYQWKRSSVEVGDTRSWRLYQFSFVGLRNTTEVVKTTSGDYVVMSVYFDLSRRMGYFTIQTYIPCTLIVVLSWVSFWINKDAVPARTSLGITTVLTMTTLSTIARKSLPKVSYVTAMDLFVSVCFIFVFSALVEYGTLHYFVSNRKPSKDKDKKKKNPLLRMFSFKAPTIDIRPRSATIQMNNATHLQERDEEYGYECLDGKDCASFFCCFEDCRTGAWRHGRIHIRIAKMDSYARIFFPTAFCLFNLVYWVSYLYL
UniProt P63080, 26-473 partner limits assumed: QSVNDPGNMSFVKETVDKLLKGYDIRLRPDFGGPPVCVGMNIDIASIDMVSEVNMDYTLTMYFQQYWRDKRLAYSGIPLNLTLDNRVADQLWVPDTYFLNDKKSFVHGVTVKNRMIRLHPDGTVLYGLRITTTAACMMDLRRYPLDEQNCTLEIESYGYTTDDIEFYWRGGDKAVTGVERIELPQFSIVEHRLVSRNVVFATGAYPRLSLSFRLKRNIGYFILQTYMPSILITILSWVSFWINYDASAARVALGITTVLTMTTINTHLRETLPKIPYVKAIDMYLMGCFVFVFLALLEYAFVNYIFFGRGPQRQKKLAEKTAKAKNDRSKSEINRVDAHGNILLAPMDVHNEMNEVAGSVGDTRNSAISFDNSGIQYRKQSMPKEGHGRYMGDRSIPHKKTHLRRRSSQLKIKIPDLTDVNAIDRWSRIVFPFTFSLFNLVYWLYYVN

Molecular target: α1β3γ2L GABAAR (Mus musculus, UniProt P62812)
Test: Whole-cell voltage-clamp electrophysiology, wild-type α1β3γ2L GABAARs expressed in HEK cells
Format: cell-based, murine
Conditions: for mean (weighted) decay time (τw) of GABA current: 1 nM PS analogue
[1] = GABA current after 20 s of 30 μM GABA (near steady state)
[2] = potency for reducing GABA current weighted decay time constant, 30 μM GABA
[3] = read-out: Decay inhibition (IC50), potency for reducing GABA current weighted decay time constant, 30 μM GABA
[4] = read-out: Steady-state inhibition (IC50), GABA current after 20 s of 30 μM GABA (near steady state)

| Compound | mean (weighted) decay time (τw) of GABA current (30 μM GABA) [s] | Steady-state inhibition (pIC50) [1] | Peak inhibition (pIC50) (peak current evoked by 30 μM GABA, analogue pre-applied 10–12 s and co-applied) | Decay inhibition (pIC50) [2] | IC50 [3] [µM] | IC50 (read-out: Peak inhibition (IC50), peak current evoked by 30 μM GABA, analogue pre-applied 10–12 s and co-applied) [µM] | IC50 [4] [µM] | IC50 (read-out: Peak inhibition (IC50), peak current evoked by 30 μM GABA, estimated by graphical extrapolation or not measurable) [µM] |
| --- | --- | --- | --- | --- | --- | --- | --- | --- |
| C[C@]12CC[C@H]3[C@@H](CC=C4C[C@@H](OS(=O)(=O)O)CC[C@@]43C)[C@@H]1CC[C@@H]2C(=O)Cn1cnc2ccccc21 | 3.8 ± 0.2 | 6.391 ± 0.038 | 4.327 ± 0.128 | 5.142 ± 0.087 | 7.2 | 47 | 0.41 |  |
| C[C@]12CC[C@H]3[C@@H](CC=C4C[C@@H](OS(=O)(=O)O)CC[C@@]43C)[C@@H]1CC[C@@H]2C(=O)CN1CCCCC1 | 3.7 ± 0.3 | 5.265 ± 0.085 |  | 3.663 ± 0.186 | 217 |  | 5.4 | > 2000 |
